{
  "source": "patent US20050032096A1",
  "about": "“Methods for predicting drug sensitivity in patients afflicted with hypertension” (deCODE genetics ehf., priority 2003, published 2005)",
  "origin": "cited, not measured here",
  "target": "AT1 receptor (Homo sapiens, UniProt P30556)",
  "settings": "cited from earlier work",
  "data": [
    {"smiles": "CCCCc1nc(Cl)c(CO)n1Cc1ccc(-c2ccccc2-c2nn[nH]n2)cc1", "note": "[Cozaar, Losartan potassium]", "values": [
      {"measurement": "greater affinity for the AT1 receptor than for the AT2 receptor", "value": "about 1000 fold"},
      {"measurement": "type of inhibition of the AT1 receptor", "setting": "in vitro binding studies", "value": "reversible, competitive inhibitor"}
    ]}
  ]
}
